Measured values published in patent US9371331B2, “Modulators of methyl modifying enzymes, compositions and uses thereof” (Constellation Pharmaceuticals, Inc., priority 2012, dated 2016).

The chains behind the UniProt entries cited, without tags or fusion partners. Where a name states a change or a piece, a line headed by the entry shows the natural chain unless it says otherwise.
UniProt Q15910, whole entry Y641N: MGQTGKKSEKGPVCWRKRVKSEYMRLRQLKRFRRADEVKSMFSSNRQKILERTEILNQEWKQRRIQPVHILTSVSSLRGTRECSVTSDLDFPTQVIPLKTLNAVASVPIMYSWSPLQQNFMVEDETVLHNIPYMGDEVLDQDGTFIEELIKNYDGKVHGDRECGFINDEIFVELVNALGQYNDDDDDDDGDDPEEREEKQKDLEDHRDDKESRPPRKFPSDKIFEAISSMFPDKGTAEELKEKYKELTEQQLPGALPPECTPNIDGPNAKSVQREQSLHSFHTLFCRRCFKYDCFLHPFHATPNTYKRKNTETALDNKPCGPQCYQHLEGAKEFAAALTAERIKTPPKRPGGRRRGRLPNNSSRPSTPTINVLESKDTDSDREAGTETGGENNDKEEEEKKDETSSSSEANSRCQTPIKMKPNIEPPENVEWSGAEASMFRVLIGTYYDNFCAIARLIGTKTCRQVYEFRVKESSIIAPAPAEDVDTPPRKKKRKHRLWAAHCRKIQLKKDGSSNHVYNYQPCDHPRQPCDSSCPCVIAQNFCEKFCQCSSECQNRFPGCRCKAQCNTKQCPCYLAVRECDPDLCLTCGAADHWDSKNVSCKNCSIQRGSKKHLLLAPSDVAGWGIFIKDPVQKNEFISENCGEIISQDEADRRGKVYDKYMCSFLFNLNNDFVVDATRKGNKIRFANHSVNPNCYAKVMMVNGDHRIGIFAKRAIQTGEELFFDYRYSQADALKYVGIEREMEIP
UniProt Q15910, whole entry: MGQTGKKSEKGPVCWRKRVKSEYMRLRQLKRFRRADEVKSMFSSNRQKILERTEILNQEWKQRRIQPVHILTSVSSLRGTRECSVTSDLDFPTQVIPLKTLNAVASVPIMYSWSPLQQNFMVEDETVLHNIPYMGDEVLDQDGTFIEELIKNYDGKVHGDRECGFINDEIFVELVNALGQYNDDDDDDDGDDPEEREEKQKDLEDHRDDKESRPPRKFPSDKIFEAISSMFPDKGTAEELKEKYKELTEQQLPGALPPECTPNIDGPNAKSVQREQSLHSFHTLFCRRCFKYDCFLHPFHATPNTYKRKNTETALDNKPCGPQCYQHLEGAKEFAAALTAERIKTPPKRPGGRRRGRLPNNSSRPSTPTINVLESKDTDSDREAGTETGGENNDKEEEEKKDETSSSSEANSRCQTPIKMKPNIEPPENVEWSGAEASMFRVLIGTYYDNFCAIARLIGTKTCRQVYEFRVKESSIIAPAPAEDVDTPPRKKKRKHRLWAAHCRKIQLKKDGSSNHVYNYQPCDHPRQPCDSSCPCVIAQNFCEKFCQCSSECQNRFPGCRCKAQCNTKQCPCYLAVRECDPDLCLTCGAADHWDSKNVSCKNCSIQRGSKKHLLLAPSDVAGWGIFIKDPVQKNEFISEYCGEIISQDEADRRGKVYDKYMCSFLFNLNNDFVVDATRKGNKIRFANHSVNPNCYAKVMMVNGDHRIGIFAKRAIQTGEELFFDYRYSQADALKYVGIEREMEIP
UniProt O75530, whole entry partner: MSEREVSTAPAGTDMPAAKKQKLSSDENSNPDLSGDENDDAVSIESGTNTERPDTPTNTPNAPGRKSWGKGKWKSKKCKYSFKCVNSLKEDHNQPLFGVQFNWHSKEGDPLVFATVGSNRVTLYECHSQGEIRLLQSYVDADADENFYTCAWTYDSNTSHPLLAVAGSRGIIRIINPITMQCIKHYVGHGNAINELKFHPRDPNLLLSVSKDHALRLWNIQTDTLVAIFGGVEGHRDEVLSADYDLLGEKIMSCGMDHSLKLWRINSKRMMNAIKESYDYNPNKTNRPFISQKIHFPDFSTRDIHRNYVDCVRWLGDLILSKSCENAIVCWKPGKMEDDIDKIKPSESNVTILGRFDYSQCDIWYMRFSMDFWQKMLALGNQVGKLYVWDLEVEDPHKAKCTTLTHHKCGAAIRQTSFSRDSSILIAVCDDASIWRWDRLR
UniProt Q15022, whole entry partner: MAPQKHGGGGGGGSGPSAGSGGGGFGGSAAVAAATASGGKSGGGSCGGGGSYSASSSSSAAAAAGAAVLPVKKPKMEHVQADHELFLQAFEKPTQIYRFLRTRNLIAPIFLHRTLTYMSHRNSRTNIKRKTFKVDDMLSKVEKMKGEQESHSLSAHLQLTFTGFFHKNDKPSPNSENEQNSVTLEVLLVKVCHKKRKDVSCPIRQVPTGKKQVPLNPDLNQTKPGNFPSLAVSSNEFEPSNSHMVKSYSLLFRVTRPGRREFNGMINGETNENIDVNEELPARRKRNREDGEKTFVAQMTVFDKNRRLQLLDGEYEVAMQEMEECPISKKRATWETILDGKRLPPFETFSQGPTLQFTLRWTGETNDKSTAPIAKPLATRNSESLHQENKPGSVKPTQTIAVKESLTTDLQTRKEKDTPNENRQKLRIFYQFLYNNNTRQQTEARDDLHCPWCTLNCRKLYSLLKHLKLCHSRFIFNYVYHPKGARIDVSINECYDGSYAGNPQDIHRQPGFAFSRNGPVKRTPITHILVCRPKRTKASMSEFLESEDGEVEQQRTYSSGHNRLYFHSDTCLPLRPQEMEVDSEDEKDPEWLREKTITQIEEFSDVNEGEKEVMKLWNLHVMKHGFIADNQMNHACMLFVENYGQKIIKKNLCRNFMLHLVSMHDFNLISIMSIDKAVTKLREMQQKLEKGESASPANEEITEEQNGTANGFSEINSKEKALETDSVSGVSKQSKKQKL

Assays:
Y641N EZH2 = Y641N EZH2 (Homo sapiens, UniProt Q15910, Y641N); experiment: Y641N EZH2 assay: as EZH2 assay, with reconstituted H3K27Me2 oligonucleosomes as substrate; type: biochemical; conditions: Y641N mutant EZH2, H3K27Me2 oligonucleosome substrate; for IC50: read-out: Y641N EZH2 IC50
EZH2 (rPRC2) = EZH2 (rPRC2) (Homo sapiens, UniProt Q15910); experiment: EZH2 assay: rPRC2, biotinylated oligonucleosomes, 3H SAM methyl transfer (FlashPlate scintillation); type: biochemical; conditions: wild-type EZH2 (rPRC2), biotinylated oligonucleosome substrate; for IC50: read-out: EZH2 IC50
[1] = tested on: H3K27me3 mark in HeLa cells; experiment: H3K27me3 MSD Hela Assay; conditions: read-out: H3K27me3_MSD_HeLa_ (EC50), 96 hours

SMILES | Y641N EZH2 IC50 (Y641N EZH2) | EZH2 IC50 (EZH2 (rPRC2)) | IC50 (Y641N EZH2) | IC50 (EZH2 (rPRC2)) | EC50 [1]
Cc1cc(C)c(CNC(=O)C2C(=O)N(C(C)c3ccccc3)c3ccccc32)c(=O)[nH]1 (centres unmarked) | *(10 μM) | *(0.5 μM) |  |  | 
Cc1cc(C)c(CNC(=O)c2c(C)n(C3CCOc4ccccc43)c3ncccc23)c(=O)[nH]1 (centres unmarked) |  |  | 0.1 to 1 µM | 0.1 to 1 µM | 
Cc1cc(C)c(CNC(=O)c2c(C)n(-c3ccccc3C)c3ccccc23)c(=O)[nH]1 |  |  | 0.1 to 1 µM | < 0.1 µM | 2 to 10 µM
Cc1cc(C)c(CNC(=O)c2c(C)n(Cc3ccccc3)c3c(=O)n(C)ccc23)c(=O)[nH]1 | *(0.5 μM) | *(10 μM) |  |  | 
COc1cc(C)[nH]c(=O)c1CNC(=O)c1c(C)n(C(C)c2ccccc2)c2ccccc12 (single isomer, unassigned) [Compound 114, (R or S)N-((4-methoxy-6-methyl-2-oxo-1,2-dihydropyridin-3-yl)methyl)-2-methyl-1-(1-phenylethyl)-1H-indole-3-carboxamide] |  |  | 1 to 10 µM | 0.1 to 1 µM | 
Cc1cc(C)c(CNC(=O)c2nn(-c3ccccc3)c3c2CCC3)c(=O)[nH]1 |  |  | > 10 µM | > 10 µM | 
Cc1cc(C)c(CNC(=O)c2cn(Cc3ccccc3)nc2-c2ccccc2)c(=O)[nH]1 |  |  | > 10 µM | > 10 µM | 
Cc1cccc(C(C)n2c(C)c(C(=O)NCc3c(C)cc(C)[nH]c3=O)c3ccccc32)c1 (centres unmarked) |  |  | < 0.1 µM | < 0.1 µM | 
COCC(C)n1c(C)c(C(=O)NCc2c(OC)cc(C)[nH]c2=O)c2ccncc21 (centres unmarked) |  |  | > 10 µM | 1 to 10 µM | 
COc1cc(C)[nH]c(=O)c1CNC(=O)c1c(C)n(C(C)c2ccccc2)c2ncccc12 (centres unmarked) |  |  | 0.1 to 1 µM | < 0.1 µM | 2 to 10 µM
COc1cc(C)[nH]c(=O)c1CNC(=O)c1c(C)n(C(C)C2CCN(C(C)=O)CC2)c2ccccc12 (centres unmarked) |  |  | < 0.1 µM | < 0.1 µM | 0.4 to 2 µM
Cc1cc(C)c(CNC(=O)c2cnn(-c3ccccn3)c2C)c(=O)[nH]1 |  |  | > 10 µM | > 10 µM | 
COc1cc(C)[nH]c(=O)c1CNC(=O)c1c(C)n(C(C)C2CCNCC2)c2ccccc12 (single isomer, unassigned) [Compound 326, (R or S)—N-((4-methoxy-6-methyl-2-oxo-1,2-dihydropyridin-3-yl)methyl)-2-methyl-1-(1-(piperidin-4-yl)ethyl)-1H-indole-3-carboxamide hydrochloride] |  |  | < 0.1 µM | < 0.1 µM | 0.4 to 2 µM
COc1cc(C)[nH]c(=O)c1CNC(=O)c1c(C)n(C(C)C2CCOCC2)c2ncccc12 (single isomer, unassigned) |  |  | 0.1 to 1 µM |  | 
COc1cccc(-c2nn(Cc3ccccc3)cc2C(=O)NCc2c(C)cc(C)[nH]c2=O)c1 |  |  | > 10 µM | > 10 µM | 
Cc1cc(C)c(CNC(=O)c2c(C)n(C(C)c3ccccc3)c3ncncc23)c(=O)[nH]1 (centres unmarked) |  |  | 0.1 to 1 µM | < 0.1 µM | 

Where a name gives a salt, the structure may show the parent alone.
